By UniProt entry, the sequences of proteins in these tests, tags left out. Where a name states a change or a piece, a line headed by the entry shows the natural chain unless it says otherwise.
UniProt Q9NYV8: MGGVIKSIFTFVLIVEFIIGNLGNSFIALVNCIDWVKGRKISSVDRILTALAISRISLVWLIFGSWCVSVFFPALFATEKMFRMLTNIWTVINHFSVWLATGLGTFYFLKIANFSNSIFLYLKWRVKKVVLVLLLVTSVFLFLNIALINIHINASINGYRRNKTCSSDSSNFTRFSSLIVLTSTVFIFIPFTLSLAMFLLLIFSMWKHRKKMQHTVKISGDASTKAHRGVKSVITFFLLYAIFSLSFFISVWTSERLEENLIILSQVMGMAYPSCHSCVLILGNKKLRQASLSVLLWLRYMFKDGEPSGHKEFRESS

In patent US8158372B2, “Agonists of a bitter taste receptor and uses thereof” (Deutsches Institut für Ernährungsforschung Potsdam-Rehbrücke, priority 2004, dated 2012):

Biological target: hTAS2R14 (Homo sapiens, UniProt Q9NYV8)
Assay: hTAS2R14 ligand screening, FLIPR calcium assay in transfected HEK-293T Gα16gust44 cells
Conditions: conc 500 μM

For D-(+)-sucrose octaacetate, the response was “n.r”.
